Assay results taken from paper PMC5541792, “Simultaneous Determination of 11 Compounds in Gualou Guizhi Granule and Pharmacokinetics Study by UPLC-MS/MS” (Journal of Analytical Methods in Chemistry, 2017).

Assay: Stability of analytes in rat plasma samples (method validation)
Type: in vitro ADME
Conditions: 4°C for 24 h, high QC nominal concentration, n = 6
Experimental: Stability of the analytes from plasma samples was performed by determining three different concentrations (low, middle, and high samples) in six replicates under different conditions. It included short-term stability which was assessed by keeping samples at room temperature (25°C) for 24 h, stability which was measured using samples stored at 4°C for 24 h, and freeze-thaw stability that was determined after three freeze-thaw cycles at −80°C.

Autosampler stability (24 h) Mean: 107.48%
SMILES: CC1(C)[C@@H](O[C@H]2O[C@H](C(=O)O)[C@@H](O)[C@H](O)[C@H]2O[C@@H]2O[C@H](C(=O)O)[C@@H](O)[C@H](O)[C@H]2O)CC[C@]2(C)[C@H]3C(=O)C=C4[C@@H]5C[C@@](C)(C(=O)O)CC[C@]5(C)CC[C@@]4(C)[C@]3(C)CC[C@@H]12 [Glycyrrhizic acid, glycyrrhizic acid]
